For assay [1], the target named is T1, Protein arginine N-methyltransferase 7 (Homo sapiens, UniProt Q9NVM4).
T1 sequence (Q9NVM4 whole entry): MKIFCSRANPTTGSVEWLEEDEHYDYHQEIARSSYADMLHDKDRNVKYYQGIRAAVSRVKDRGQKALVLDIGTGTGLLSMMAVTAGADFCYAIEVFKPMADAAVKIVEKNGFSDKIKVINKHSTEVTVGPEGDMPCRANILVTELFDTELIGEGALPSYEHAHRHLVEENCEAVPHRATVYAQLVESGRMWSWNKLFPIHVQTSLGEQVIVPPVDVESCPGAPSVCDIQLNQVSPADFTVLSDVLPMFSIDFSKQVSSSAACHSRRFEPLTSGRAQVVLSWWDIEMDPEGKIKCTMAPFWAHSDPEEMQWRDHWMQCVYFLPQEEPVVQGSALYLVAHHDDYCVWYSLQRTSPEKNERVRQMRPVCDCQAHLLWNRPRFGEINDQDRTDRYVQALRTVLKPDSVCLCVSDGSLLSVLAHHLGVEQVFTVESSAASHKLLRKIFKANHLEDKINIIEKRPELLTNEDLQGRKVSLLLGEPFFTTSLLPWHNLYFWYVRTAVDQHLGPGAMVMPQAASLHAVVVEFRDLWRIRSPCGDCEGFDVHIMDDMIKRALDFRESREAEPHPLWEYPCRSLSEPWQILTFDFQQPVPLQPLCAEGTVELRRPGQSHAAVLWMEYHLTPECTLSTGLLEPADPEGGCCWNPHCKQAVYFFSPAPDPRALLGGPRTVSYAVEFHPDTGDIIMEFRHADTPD
In words: Inhibition of recombinant human N-terminal His-tagged full length PRMT7 expressed in baculovirus using of histone H4 as substrate preincubated for 15 mins followed by substrate/[3H]-SAM addition measured after 240 mins.

Sequences of proteins named here, by UniProt entry; tags and fusion partners are left off.
UniProt Q96LA8, whole entry: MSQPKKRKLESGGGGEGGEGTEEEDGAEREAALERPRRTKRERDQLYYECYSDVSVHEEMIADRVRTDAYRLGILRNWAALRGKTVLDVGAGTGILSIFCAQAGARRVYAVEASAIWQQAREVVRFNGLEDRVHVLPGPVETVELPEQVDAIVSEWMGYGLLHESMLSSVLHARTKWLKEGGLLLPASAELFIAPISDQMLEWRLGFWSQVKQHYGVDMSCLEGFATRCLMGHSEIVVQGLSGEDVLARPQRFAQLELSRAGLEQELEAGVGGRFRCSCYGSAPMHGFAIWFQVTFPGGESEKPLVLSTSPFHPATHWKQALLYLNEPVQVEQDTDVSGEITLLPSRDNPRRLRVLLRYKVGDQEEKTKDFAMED

For assay [2], the target named is Protein arginine N-methyltransferase 6 (Homo sapiens, UniProt Q96LA8). As to the kind of experiment: Inhibition of recombinant human N-terminal His-tagged PRMT6 (2 to 375 residues) expressed in Escherichia coli using of histone H3 as substrate preincubated for 15 mins followed by substrate/S-adenosyl methionine addition measured after 60 mins by alpha LISA assay. (Alpha assays give light when donor and acceptor beads are brought close together.)

Turning to `COC(=O)c1ccccc1NC(=O)CSc1nc2cc(OC)ccc2[nH]1`, the half-inhibitory concentration (IC50) in assay [1] and in assay [2] was greater than 100 µM each time.
